Results taken from patent US6750228B1, “Aromatic sulfone hydroxamic acid metalloprotease inhibitor” (priority 1997, dated 2004).
pIC50: −log10 of the molar value. Read-outs that look alike come from different tables or passages of the source.

Amino acid sequences for entries named in this document (tags omitted). Residues count along the entry.
UniProt P08253, 110-660 limits assumed: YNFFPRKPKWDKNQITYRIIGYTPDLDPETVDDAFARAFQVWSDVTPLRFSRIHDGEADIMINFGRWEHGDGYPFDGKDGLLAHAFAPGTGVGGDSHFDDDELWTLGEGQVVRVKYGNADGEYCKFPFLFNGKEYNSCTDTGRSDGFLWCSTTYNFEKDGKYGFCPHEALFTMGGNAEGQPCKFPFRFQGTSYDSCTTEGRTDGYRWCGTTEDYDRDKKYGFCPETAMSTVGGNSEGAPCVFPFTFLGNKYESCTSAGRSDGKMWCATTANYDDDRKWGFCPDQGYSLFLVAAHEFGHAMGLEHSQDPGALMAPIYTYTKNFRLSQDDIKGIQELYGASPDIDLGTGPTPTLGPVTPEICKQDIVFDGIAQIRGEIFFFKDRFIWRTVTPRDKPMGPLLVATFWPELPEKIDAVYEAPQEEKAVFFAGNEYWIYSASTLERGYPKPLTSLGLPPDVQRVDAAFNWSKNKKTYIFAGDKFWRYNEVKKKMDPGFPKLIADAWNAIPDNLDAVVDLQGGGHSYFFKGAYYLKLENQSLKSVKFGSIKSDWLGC
UniProt P03956, 100-469 limits assumed: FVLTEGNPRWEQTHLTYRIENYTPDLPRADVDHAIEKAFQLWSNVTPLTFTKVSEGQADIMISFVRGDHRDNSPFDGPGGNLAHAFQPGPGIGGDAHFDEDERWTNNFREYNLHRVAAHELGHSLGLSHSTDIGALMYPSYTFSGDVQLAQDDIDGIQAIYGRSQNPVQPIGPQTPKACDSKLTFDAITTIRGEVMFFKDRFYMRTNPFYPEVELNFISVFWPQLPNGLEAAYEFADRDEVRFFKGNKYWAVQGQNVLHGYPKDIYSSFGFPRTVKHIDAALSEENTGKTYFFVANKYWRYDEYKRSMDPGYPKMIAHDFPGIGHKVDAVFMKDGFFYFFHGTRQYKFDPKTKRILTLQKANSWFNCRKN

Columns and labels:
[1] = biological target: MMP-13 (Homo sapiens, UniProt P45452); conditions: read-out: MMP-13 IC50, recombinant human MMP-13, MCA peptide substrate 4 μM, pH 7.5, room temperature
[2] = biological target: MMP-2 (Homo sapiens, UniProt P08253); conditions: read-out: MMP-2 IC50, recombinant human MMP-2, MCA peptide substrate 4 μM, pH 7.5, room temperature
[3] = biological target: MMP-1 (Homo sapiens, UniProt P03956); conditions: read-out: MMP-1 IC50, recombinant human MMP-1, MCA peptide substrate 4 μM, pH 7.5, room temperature

CC(C)OCCCNc1ccc(S(=O)(=O)C2(C(=O)NO)CCOCC2)cc1
pIC50 [1]: 6.54

COc1ccc(N2CCN(c3ccc(S(=O)(=O)C4(C(=O)NO)CCN(C5CC5)CC4)cc3)CC2)cc1 [Example 368]
pIC50 ([1]; tested form: 2HCl): 9.30

O=C(Nc1cccc(Cl)c1)N1CCC(C(=O)NO)(S(=O)(=O)c2ccc(Oc3ccc(OC(F)(F)F)cc3)cc2)CC1
pIC50 ([2]; no asterisk): > 10.00
pIC50 [3]: < 5.00
pIC50 [1]: 8.57

O=C(NO)C1(S(=O)(=O)c2ccc(N3CCCNCC3)cc2)CCOCC1
pIC50 ([2]; tested form: TFA): 5.43
pIC50 ([3]; tested form: TFA): < 5.00
pIC50 ([1]; tested form: TFA): 5.38

CCCCOCCCNc1ccc(S(=O)(=O)C2(C(=O)NO)CCOCC2)cc1
pIC50 [1]: 7.60

O=C(NO)C1(S(=O)(=O)c2ccc(Oc3ccc(OC(F)(F)F)cc3)cc2)CCN(S(=O)(=O)c2ccccc2OC(F)(F)F)CC1
pIC50 ([2]; no asterisk): 9.82
pIC50 [3]: < 5.00
pIC50 [1]: 8.46

O=C(NO)C1(S(=O)(=O)c2ccc(N3CCC(OCc4ccc(C(F)(F)F)cc4)CC3)cc2)CCN(C2CC2)CC1
pIC50 ([2]; no asterisk, tested form: TFA): 6.48
pIC50 ([3]; tested form: TFA): < 5.00
pIC50 ([1]; tested form: TFA): 8.32
